From patent US20180271787A1, “COMBINATION METHODS AND COMPOSITIONS” (CELATOR PHARMACEUTICALS, INC., priority 2008, published 2018)

Tested on: DLD-1 human colon xenografts
Test: Efficacy in mice bearing DLD-1 human colon xenografts
Type: in vivo, female nude-Foxn1 mice
Conditions: DLD-1 human colon xenograft model
Method: Briefly, in order to perform tumor studies on mice, animals are inoculated subcutaneously with approximately 2×10^6 tumor cells which are then allowed to grow to sufficient size before being treated. This is done using the methods described previously in PCT publication WO03/028696 (supra).
Either free irinotecan or Cetuximab® was administered to female nude-Foxn1 mice at doses of 100 mg/kg or 1 mg/mouse, respectively on a multiple dosing schedule as shown by the arrows in FIG. 1A. Cetuximab® was dosed on a Q3Dx7 schedule and irinotecan a Q7Dx3 schedule.
Either liposomal irinotecan or free Cetuximab® was administered to female nude-Foxn1 mice at doses of 100 mg/kg or 1 mg/mouse, respectively on a multiple dosing schedule as shown by the arrows in FIG. 1B. Cetuximab® was dosed on a Q3Dx7 schedule and liposomal irinotecan on a Q7Dx3 schedule.

## Cetuximab®: epidermal growth factor receptor inhibitor
  effect of Cetuximab on activity of irinotecan and liposomal irinotecan (example title): Enhances the Activity of Irinotecan as well as Liposomal Irinotecan
